Reference: US20010053777A1, “Drug treatment for restless leg syndrome” (priority 1999, published 2001)

System: patients with RLS
Experiment: Treatment of 2 patients with RLS: therapeutic history, monotherapy trials and combination therapy
Details: 2 RLS patients, previous therapy or monotherapy; dose-limiting or intolerable
Procedure: 2 patients with RLS (person and person) were treated with a combination therapy of pramipexole and clonidine.
The clonidine was also initially prescribed in a single dose of 0.075 mg two hours before bedtime and increased by 0.075 mg at intervals of 3 days.
2. Treatment with a combination therapy of clonidine and pramipexole After slowly bringing the clonidine therapy to a complete halt and after a treatment-free period of about 1 week, both patients were treated with a combination of 0.088 mg of pramipexole and 0.075 mg of clonidine. […] After 7 days the dosage of pramipexole had been increased to 0.18 mg and the dosage of clonidine to 0.15 mg, two hours before going to nd sleep.

bromocryptine
side effects: nausea, gastrointestinal problems and dizziness
